{"source": "patent US20170056336A1", "about": "(published 2017)", "tested_on": "genes regulated by FL-AR and AR-V7 in LNCaP95 cells", "experiment": "Gene expression analysis (quantitative real-time RT-PCR) in LNCaP95 cells", "format": "cell-based, human", "key": {"[1]": {"conditions": "LNCaP95 cells, in response to androgen, Compound A 35 uM"}}}
{"smiles": "CNC(=O)c1ccc(N2C(=S)N(c3ccc(C#N)c(C(F)(F)F)c3)C(=O)C2(C)C)cc1F", "note": "[enzalutamide, 4-(3-(4-cyano-3-(trifluoromethyl)phenyl)-5,5-dimethyl-4-oxo-2-thioxoimidazolidin-1-yl)-2-fluoro-N-methylbenzamide]", "values": [{"measurement": "levels of UBE2C transcripts", "setting": "LNCaP95 cells treated with androgen", "value": "increased"}, {"measurement": "BEZ-235-induced levels of PSA transcript", "setting": "LNCaP95 cells, absence of androgen, with BEZ-235", "value": "not"}, {"measurement": "expression of FKBP5", "setting": "[1]", "value": "inhibited"}, {"measurement": "expression of KLK3", "setting": "[1]", "value": "inhibited"}, {"measurement": "expression of TMPRSS2", "setting": "[1]", "value": "inhibited"}]}
